{"source": "ChEMBL document CHEMBL1138857", "about": "“Quinol-4-ones as steroid A-ring mimetics in nonsteroidal dissociated glucocorticoid agonists” (J Med Chem, 2006)", "target": "T1, Progesterone receptor (Homo sapiens, UniProt P06401)", "T1 sequence (P06401 whole entry)": "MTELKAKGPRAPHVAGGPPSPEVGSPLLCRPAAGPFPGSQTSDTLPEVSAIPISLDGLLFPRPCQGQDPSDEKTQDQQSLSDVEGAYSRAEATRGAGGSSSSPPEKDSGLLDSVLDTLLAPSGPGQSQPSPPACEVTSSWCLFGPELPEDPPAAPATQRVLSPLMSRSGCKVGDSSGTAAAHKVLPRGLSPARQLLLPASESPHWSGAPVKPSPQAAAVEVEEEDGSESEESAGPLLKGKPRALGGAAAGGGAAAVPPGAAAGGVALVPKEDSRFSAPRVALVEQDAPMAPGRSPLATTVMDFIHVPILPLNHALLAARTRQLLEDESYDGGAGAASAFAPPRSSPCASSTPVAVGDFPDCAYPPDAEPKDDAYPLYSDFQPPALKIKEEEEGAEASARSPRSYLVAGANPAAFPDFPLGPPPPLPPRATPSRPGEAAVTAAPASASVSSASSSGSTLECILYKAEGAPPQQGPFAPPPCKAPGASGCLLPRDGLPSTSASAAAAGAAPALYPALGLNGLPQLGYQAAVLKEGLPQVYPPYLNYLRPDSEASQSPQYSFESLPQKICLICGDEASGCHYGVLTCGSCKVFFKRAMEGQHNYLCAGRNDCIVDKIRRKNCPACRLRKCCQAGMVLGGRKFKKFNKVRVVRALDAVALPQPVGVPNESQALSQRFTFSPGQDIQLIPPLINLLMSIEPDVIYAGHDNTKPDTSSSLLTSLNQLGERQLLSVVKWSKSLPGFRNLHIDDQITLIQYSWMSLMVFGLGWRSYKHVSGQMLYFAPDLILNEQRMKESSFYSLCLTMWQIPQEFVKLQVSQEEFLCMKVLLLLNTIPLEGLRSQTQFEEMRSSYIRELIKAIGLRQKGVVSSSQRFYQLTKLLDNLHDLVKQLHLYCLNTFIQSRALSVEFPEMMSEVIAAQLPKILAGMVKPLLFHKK", "test": "Inhibition of tetramethylrhodamine labeled RU486 binding to PR by FP assay", "data": [{"molecule": "Cc1noc(=O)c2ccc(NC(=O)C(O)(CC(C)(C)c3cccc4c3OCC4)C(F)(F)F)cc12", "note": "(stereo unspecified)", "values": [{"measurement": "IC50", "result": 19, "unit": "nM"}]}]}
